Amino acid sequences for entries named in this document (tags omitted).
UniProt P42676, whole entry: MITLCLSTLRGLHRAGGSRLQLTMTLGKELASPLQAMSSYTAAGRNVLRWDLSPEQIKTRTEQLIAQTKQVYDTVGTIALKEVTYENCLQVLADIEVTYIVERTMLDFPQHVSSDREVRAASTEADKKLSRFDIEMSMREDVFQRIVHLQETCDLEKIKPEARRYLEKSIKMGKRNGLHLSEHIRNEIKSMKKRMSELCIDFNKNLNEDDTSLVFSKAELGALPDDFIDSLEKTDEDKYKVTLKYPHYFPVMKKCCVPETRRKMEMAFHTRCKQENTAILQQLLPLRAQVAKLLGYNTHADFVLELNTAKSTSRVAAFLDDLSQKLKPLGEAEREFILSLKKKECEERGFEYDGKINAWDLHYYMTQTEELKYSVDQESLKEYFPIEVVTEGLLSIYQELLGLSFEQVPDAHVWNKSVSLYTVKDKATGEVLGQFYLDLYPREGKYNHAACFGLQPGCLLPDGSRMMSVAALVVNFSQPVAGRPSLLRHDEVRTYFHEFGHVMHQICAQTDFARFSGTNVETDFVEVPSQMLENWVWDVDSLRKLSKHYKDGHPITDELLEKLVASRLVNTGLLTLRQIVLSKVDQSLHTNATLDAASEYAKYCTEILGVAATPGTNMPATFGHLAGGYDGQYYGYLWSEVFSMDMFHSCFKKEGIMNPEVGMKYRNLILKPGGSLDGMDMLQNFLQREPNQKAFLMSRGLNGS
UniProt P24155, whole entry: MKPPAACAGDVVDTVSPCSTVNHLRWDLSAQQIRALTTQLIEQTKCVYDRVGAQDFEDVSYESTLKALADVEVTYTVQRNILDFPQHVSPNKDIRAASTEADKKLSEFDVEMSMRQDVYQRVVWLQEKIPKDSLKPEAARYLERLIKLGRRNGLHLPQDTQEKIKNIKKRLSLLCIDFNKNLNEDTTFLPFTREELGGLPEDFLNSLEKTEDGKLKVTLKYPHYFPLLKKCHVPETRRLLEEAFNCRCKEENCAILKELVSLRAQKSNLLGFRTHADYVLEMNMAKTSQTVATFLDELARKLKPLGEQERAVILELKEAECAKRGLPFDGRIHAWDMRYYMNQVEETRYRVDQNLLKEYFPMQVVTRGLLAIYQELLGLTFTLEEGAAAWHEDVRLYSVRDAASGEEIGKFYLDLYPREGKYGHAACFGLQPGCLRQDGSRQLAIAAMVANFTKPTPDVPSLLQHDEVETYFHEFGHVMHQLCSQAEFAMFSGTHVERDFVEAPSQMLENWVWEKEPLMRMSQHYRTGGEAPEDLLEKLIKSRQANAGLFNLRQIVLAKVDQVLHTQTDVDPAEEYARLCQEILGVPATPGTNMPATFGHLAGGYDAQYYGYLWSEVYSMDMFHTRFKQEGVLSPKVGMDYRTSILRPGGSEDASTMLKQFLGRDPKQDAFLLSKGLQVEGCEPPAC

In patent US20080146524A1, “Selective inhibitors of neurotensin degrading enzymes” (Solvay Pharmaceuticals B.V., priority 2006, published 2008):

Key:
[1] = target: Neurolysine EC 3.4.24.16 (UniProt P42676)
[2] = target: Thimet oligopeptidase EC 3.4.24.15 (UniProt P24155); test: enzyme inhibition of Thimet oligopeptidase EC 3.4.24.15 (published methods, Dauch 1991a,b); format: biochemical

SMILES	enzyme inhibition EC 3.4.24.16 pIC50 [1]	enzyme inhibition EC 3.4.24.15 pIC50 [2]
CCCC[C@H](NC(=O)[C@@H]1CCCN1C(=O)CCP(=O)(O)CCCCc1ccccc1)C(=O)O	8.2	7.6
CCCC[C@H](NC(=O)[C@@H]1CCCN1C(=O)CCP(=O)(O)CCCc1ccccc1)C(=O)O	6.3	6.3
CCC[C@H](NC(=O)[C@@H]1CSCN1C(=O)CCP(=O)(O)CCc1cccc2ccccc12)C(=O)O	7.2	6.9
CCCC[C@H](NC(=O)[C@@H]1CCCN1C(=O)CCP(=O)(O)CCc1cccc2ccccc12)C(=O)O	7.4	7.2
CCC[C@H](NC(=O)[C@@H]1CSCN1C(=O)CCP(=O)(O)CCCc1ccccc1)C(=O)O	5.7	5.1
CCC[C@H](NC(=O)[C@@H]1CSCN1C(=O)CCP(=O)(O)CCCCc1ccccc1)C(=O)O	7.8	6.8
